B1: mCherry-RAB33B wild type [human] / EGFP-ATG16L1 wild type [human] (parent)
chain 1: MAEEMESSLEASFSSSGAVSGASGFLPPARSRIFKIIVIGDSNVGKTCLTYRFCAGRFPDRTEATIGVDFRERAVEIDGERIKIQLWDTAGQERFRKSMVQHYYRNVHAVVFVYDMTNMASFHSLPSWIEECKQHLLANDIPRILVGNKCDLRSAIQVPTDLAQKFADTHSMPLFETSAKNPNDNDHVEAIFMTLAHKLKSHKPLMLSQPPDNGIILKPEPKPAMTCWC
chain 2: MSSGLRAADFPRWKRHISEQLRRRDRLQRQAFEEIILQYNKLLEKSDLHSVLAQKLQAEKHDVPNRHEISPGHDGTWNDNQLQEMAQLRIKHQEELTELHKKRGELAQLVIDLNNQMQRKDREMQMNEAKIAECLQTISDLETECLDLRTKLCDLERANQTLKDEYDALQITFTALEGKLRKTTEENQELVTRWMAEKAQEANRLNAENEKDSRRRQARLQKELAEAAKEPLPVEQDDDIEVIVDETSDHTEETSPVRAISRAATKRLSQPAGGLLDSITNIFGRRSVSSFPVPQDNVDTHPGSGKEVRVPATALCVFDAHDGEVNAVQFSPGSRLLATGGMDRRVKLWEVFGEKCEFKGSLSGSNAGITSIEFDSAGSYLLAASNDFASRIWTVDDYRLRHTLTGHSGKVLSAKFLLDNARIVSGSHDRTLKLWDLRSKVCIKTVFAGSSCNDIVCTEQCVMSGHFDKKIRFWDIRSESIVREMELLGKITALDLNPERTELLSCSRDDLLKVIDLRTNAIKQTFSAPGFKCGSDWTRVVFSPDGSYVAAGSAEGSLYIWSVLTGKVEKVLSKQHSSSINAVAWSPSGSHVVSVDKGCKAVLWAQY

Variants of: B1
Test: FLIM-FRET in live HeLa cells
Conditions: with EGFP-ATG16L1 wild type [human], EBSS starvation, read off a plot

| screen value (30 min) | screen value (60 min) | screen value (90 min) | screen value (120 min) | Variant |
| --- | --- | --- | --- | --- |
| 2.31 ns | 2.31 ns | 2.3 ns | 2.29 ns | chain 1 K35A Q85A |
| 2.29 ns | 2.27 ns | 2.25 ns | 2.24 ns | chain 1 I66A F95A |

Source: paper PMC8496732
